From patent US4757076A, “Method of inhibiting aromatase” (Eli Lilly and Company, priority 1984, dated 1988)

Tested on: estrogen synthesis (aromatization)
Experiment: Estrogen Synthesis Inhibition in Rats (uterine weight and ovarian steroid concentration)
Type: in vivo, immature female Wistar rats
Details: ovary, 7 days, testosterone-treated control 0.31, p < 0.05
Description: Immature female Wistar rats (45-55 grams) were divided into control and test groups of 4-8 animals each. Test compounds were administered for seven days as a component of the diet. Control animals received diet without the test compound. Beginning on the fourth day of the test, all animals treated with the test compound and one half of the control animals were given a subcutaneous injection of 1.0 mg of testosterone propionate in corn oil. The remaining control animals received only an equivalent volume of corn oil. On the seventh day of the test, rats treated with testosterone propionate were injected subcutaneously with 100 μCi of [^3 H]-testosterone in 50 μl of 3:1 (v/v) saline-ethanol.
After two hours, the animals were killed by decapitation. […]
Ovarian proteins were precipitated by the addition of 5.0 ml of ethanol to the remaining aqueous phase. […] Protein was determined according to the method of Bradford, Analytical Biochemistrv, 72, 248 (1976). […]
The visible spots were marked, and the plates were sprayed with primulin (0.001% in 4:1 v/v acetone/water) according to the method of Wright, J. Chromatography, 59, 220 (1971) which allowed for the identification of additional steroids under 365 nm UV light. […] The organic solvent was evaporated and 10.0 ml of scintillation fluid (Beckman Ready Solv-NA) was added to the vials. Samples were analyzed by liquid scintillation spectrometry. […]

With `OC(c1ccc(Cl)cc1)(c1ccc(Cl)cc1)c1cccnc1` [α,α-bis(4-chlorophenyl)-3-pyridinemethanol] the “Mean Steroid Concentration, estrone” value (30 ppm in feed (approx. 3 mg/kg/day)) was 0.19 femtomoles per milligram of protein and the “Mean Steroid Concentration, estrone” value (300 ppm in feed (approx. 30 mg/kg/day)) was 0.10 femtomoles per milligram of protein.
